# Measurements published in ChEMBL document CHEMBL3769379, “SAR Studies of 5-Aminopyrazole-4-carboxamide Analogues as Potent and Selective Inhibitors of Toxoplasma gondii CDPK1” (ACS Med Chem Lett, 2015).
# Tests used:
# in vivo [1] = conditions: BALB/c, mouse, po, 10 mg/kg
# in vivo [2] = conditions: BALB/c, mouse, po, 10 mg/kg; remark: listed apart in the source
# Toxoplasma gondii = test: microbe, parasite or virus in culture; conditions: 44 h
# in vivo [3] = conditions: BALB/c, mouse, po, 10 mg/kg; remark: listed apart in the source
# in vivo [4] = conditions: BALB/c, mouse, po, 10 mg/kg; remark: listed apart in the source
SMILES,CL/F (in vivo [1]) [mL/min/kg],half-life (in vivo [2]) [h],pEC50 (Toxoplasma gondii),Tmax (in vivo [3]) [h],AUC (in vivo [4]) [µM·h]
CCOc1ccc2cc(-c3nn(C(C)(C)C)c(N)c3C(N)=O)ccc2n1,16.7,2.23,,,
CCOc1ccc2cc(-c3nn(CC(C)(C)CO)c(N)c3C(N)=O)cnc2c1,,,5.92,,
CC(C)(C)n1nc(-c2ccc3nc(OC4CC4)ccc3c2)c(C(N)=O)c1N,10.7,9.32,,2.67,44.6
CCOc1ccc2cc(-c3nn(C4CCCCC4)c(N)c3C(N)=O)cnc2c1,16.4,3.4,6.48,,
CC(C)(C)n1nc(-c2cnc3cc(OCC4CC4)ccc3c2)c(C(N)=O)c1N,7.1,9.15,5.83,,
CCOc1ccc2cc(-c3nn(C(C)(C)C)c(N)c3C(N)=O)cnc2c1,11.8,1.47,,,40.5
CC(C)(C)n1nc(-c2cnc3cc(OC4CC4)ccc3c2)c(C(N)=O)c1N,1.4,4.83,,2.17,308
CC(C)(C)n1nc(-c2cnc3cc(OC4CCC4)ccc3c2)c(C(N)=O)c1N,57,0.7,,0.5,7.63
CCOc1ccc2cc(-c3nn(CC4CC4)c(N)c3C(N)=O)cnc2c1,,,5.92,,
CC(C)Oc1ccc2cc(-c3nn(C(C)(C)C)c(N)c3C(N)=O)cnc2c1,,,5.92,,
CCOc1ccc2cc(-c3nn(CC4CC4)c(N)c3C(N)=O)ccc2n1,,,6.32,,
CCOc1ccc2cc(-c3nn(CC(C)(C)CO)c(N)c3C(N)=O)ccc2n1,186,< 0.5,,0.5,2.33

# pEC50: −log10 of the molar value.
